Source: publication PMC6968506, “Synthesis, in vitro screening and molecular docking of isoquinolinium-5-carbaldoximes as acetylcholinesterase and butyrylcholinesterase reactivators” (2020)

Sequences of proteins named here, by UniProt entry; tags and fusion partners are left off. Residues count along the entry.
UniProt P22303, 32-614 limits assumed: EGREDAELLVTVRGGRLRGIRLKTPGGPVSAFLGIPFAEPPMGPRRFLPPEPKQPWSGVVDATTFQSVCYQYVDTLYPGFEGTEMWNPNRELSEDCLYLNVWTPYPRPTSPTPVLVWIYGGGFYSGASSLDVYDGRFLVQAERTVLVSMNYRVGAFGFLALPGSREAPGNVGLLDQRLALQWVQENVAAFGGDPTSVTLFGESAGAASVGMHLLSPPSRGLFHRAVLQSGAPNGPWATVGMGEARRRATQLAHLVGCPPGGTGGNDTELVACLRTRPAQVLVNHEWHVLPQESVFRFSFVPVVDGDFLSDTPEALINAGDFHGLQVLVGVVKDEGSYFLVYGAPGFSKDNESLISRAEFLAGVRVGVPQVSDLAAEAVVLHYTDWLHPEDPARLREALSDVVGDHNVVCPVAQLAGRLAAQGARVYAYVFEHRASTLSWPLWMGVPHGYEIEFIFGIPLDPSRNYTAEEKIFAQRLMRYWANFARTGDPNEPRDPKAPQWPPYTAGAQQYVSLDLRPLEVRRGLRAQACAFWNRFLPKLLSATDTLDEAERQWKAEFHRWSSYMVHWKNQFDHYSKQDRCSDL
UniProt P06276, 29-602 limits assumed: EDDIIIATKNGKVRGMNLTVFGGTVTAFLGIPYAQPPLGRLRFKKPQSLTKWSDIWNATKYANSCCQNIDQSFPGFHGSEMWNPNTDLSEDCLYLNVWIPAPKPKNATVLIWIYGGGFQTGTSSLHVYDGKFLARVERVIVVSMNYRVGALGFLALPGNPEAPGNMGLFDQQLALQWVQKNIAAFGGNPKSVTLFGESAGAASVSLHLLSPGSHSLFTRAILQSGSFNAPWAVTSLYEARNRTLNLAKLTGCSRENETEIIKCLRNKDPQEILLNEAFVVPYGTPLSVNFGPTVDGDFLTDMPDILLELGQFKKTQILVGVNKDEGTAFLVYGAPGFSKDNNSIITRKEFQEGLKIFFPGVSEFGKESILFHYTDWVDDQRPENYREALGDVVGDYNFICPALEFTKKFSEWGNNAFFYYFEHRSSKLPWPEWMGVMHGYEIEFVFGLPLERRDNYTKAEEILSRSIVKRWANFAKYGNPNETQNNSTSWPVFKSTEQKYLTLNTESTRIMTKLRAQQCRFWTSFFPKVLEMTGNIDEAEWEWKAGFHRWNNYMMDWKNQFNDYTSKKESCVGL

How the values were obtained:
hAChE = hAChE (Homo sapiens, UniProt P22303); assay: Inhibition assay (Ellman's method), hAChE; settings: for IC50: read-out: IC50 hAChE ± SEM, Ellman's method, pH 7.4, 37 °C; for % of hAChE activity treated with oxime (100 µM): (absorbance of uninhibited enzyme + oxime/absorbance of uninhibited enzyme)*100
hBChE = hBChE (Homo sapiens, UniProt P06276); assay: Inhibition assay (Ellman's method), hBChE; settings: for IC50: read-out: IC50 hBChE ± SEM, Ellman's method, pH 7.4, 37 °C; for % of hBChE activity treated with oxime (100 µM): (absorbance of uninhibited enzyme + oxime/absorbance of uninhibited enzyme)*100; for Selectivity index hBChE/hAChE: ratio IC50 hBChE/hAChE
[1] = target: Sarin-hBChE (human plasmatic BChE) (Homo sapiens, UniProt P06276); assay: Reactivation of sarin-inhibited hBChE; settings: 10 min, 37 °C
[2] = target: Paraoxon-hAChE (human erythrocyte AChE) (Homo sapiens, UniProt P22303); assay: Reactivation of paraoxon-inhibited hAChE; settings: 10 min, 37 °C
[3] = target: VX-hBChE (human plasmatic BChE) (Homo sapiens, UniProt P06276); assay: Reactivation of VX-inhibited hBChE; settings: 10 min, 37 °C
[4] = target: Paraoxon-hBChE (human plasmatic BChE) (Homo sapiens, UniProt P06276); assay: Reactivation of paraoxon-inhibited hBChE; settings: 10 min, 37 °C
[5] = target: human recombinant BChE inhibited by NEMP (VX surrogate) (Homo sapiens, UniProt P06276); assay: Reactivation kinetics, NEMP (VX surrogate)-inhibited BChE
[6] = target: human recombinant BChE inhibited by NIMP (sarin surrogate) (Homo sapiens, UniProt P06276); assay: Reactivation kinetics, NIMP (sarin surrogate)-inhibited BChE
[7] = affinity of oxime towards OP-inhibited enzyme
[8] = second-order reactivation rate constant kr2=kr/KD

NC(=O)c1cc[n+](CCCCC[n+]2ccc3c(C=NO)cccc3c2)cc1
IC50 (hAChE): 14.2 µM
IC50 (hBChE): 2140 µM

ON=Cc1cccc2c[n+](COC[n+]3ccc4c(C=NO)cccc4c3)ccc12
% of hAChE activity treated with oxime (100 µM) (hAChE): 26%
IC50 (hAChE): 30.3 µM
% of hBChE activity treated with oxime (100 µM) (hBChE): 34%
Selectivity index hBChE/hAChE (hBChE): 1.2
IC50 (hBChE): 35.8 µM

NC(=O)c1cc[n+](CCC[n+]2ccc3c(C=NO)cccc3c2)cc1.[Br-].[Br-]
Sarin-hBChE % reactivation ± SD ([1]; oxime 10 µM): 4.8 ± 0.2%
Sarin-hBChE % reactivation ± SD ([1]; oxime 100 µM): 7.2 ± 0.5%
% of hAChE activity treated with oxime (100 µM) (hAChE): 53%
Paraoxon-hAChE % reactivation ± SD ([2]; oxime 10 µM): 0.9 ± 0.4%
Paraoxon-hAChE % reactivation ± SD ([2]; oxime 100 µM): 2.1 ± 0.4%
VX-hBChE % reactivation ± SD ([3]; oxime 10 µM): 2.0 ± 0.3%
VX-hBChE % reactivation ± SD ([3]; oxime 100 µM): 11.5 ± 1.1%
Paraoxon-hBChE % reactivation ± SD ([4]; oxime 10 µM): 2.0 ± 0.6%
Paraoxon-hBChE % reactivation ± SD ([4]; oxime 100 µM): 2.7 ± 0.5%
% of hBChE activity treated with oxime (100 µM) (hBChE): 97%
Selectivity index hBChE/hAChE (hBChE): 21.3

NC(=O)c1cc[n+](CCCCC[n+]2ccc3c(C=NO)cccc3c2)cc1.[Br-].[Br-]
Sarin-hBChE % reactivation ± SD ([1]; oxime 10 µM): 3.9 ± 0.5%
Sarin-hBChE % reactivation ± SD ([1]; oxime 100 µM): 5.3 ± 0.4%
% of hAChE activity treated with oxime (100 µM) (hAChE): 19%
VX-hBChE % reactivation ± SD ([3]; oxime 10 µM): 2.8 ± 0.4%
VX-hBChE % reactivation ± SD ([3]; oxime 100 µM): 11.2 ± 0.4%
Paraoxon-hBChE % reactivation ± SD ([4]; oxime 10 µM): 1.9 ± 0.2%
Paraoxon-hBChE % reactivation ± SD ([4]; oxime 100 µM): 1.9 ± 0.3%
% of hBChE activity treated with oxime (100 µM) (hBChE): 88%
Selectivity index hBChE/hAChE (hBChE): 151

ON=Cc1cccc2c[n+](CCCCCCCCCC[n+]3ccc4c(C=NO)cccc4c3)ccc12
% of hAChE activity treated with oxime (100 µM) (hAChE): 1%
IC50 (hAChE): 0.1 µM
% of hBChE activity treated with oxime (100 µM) (hBChE): 8%
Selectivity index hBChE/hAChE (hBChE): 13.4
IC50 (hBChE): 1.34 µM

ON=Cc1cccc2c[n+](CCCC[n+]3ccc4c(C=NO)cccc4c3)ccc12
Sarin-hBChE % reactivation ± SD ([1]; oxime 10 µM): 4.8 ± 0.8%
Sarin-hBChE % reactivation ± SD ([1]; oxime 100 µM): 17.3 ± 0.8%
% of hAChE activity treated with oxime (100 µM) (hAChE): 11%
IC50 (hAChE): 3.74 µM
VX-hBChE % reactivation ± SD ([3]; oxime 10 µM): 11.5 ± 0.5%
VX-hBChE % reactivation ± SD ([3]; oxime 100 µM): 39.8 ± 0.4%
Paraoxon-hBChE % reactivation ± SD ([4]; oxime 10 µM): 0.2 ± 0.3%
Paraoxon-hBChE % reactivation ± SD ([4]; oxime 100 µM): 3.6 ± 1.0%
% of hBChE activity treated with oxime (100 µM) (hBChE): 64%
Selectivity index hBChE/hAChE (hBChE): 32.6
IC50 (hBChE): 122 µM

ON=Cc1cccc2c[n+](CCCCCCCCCCC[n+]3ccc4c(C=NO)cccc4c3)ccc12
% of hAChE activity treated with oxime (100 µM) (hAChE): 0%
IC50 (hAChE): 0.061 µM
% of hBChE activity treated with oxime (100 µM) (hBChE): 3%
Selectivity index hBChE/hAChE (hBChE): 17.7
IC50 (hBChE): 1.08 µM

ON=Cc1cccc2c[n+](CCCCCCCCC[n+]3ccc4c(C=NO)cccc4c3)ccc12
% of hAChE activity treated with oxime (100 µM) (hAChE): 1%
IC50 (hAChE): 0.2 µM
% of hBChE activity treated with oxime (100 µM) (hBChE): 5%
Selectivity index hBChE/hAChE (hBChE): 8.7
IC50 (hBChE): 1.73 µM

C[n+]1ccc2c(C=NO)cccc2c1
IC50 (hAChE): 23.6 µM
IC50 (hBChE): 94 µM

ON=Cc1cccc2c[n+](CCCCC[n+]3ccc4c(C=NO)cccc4c3)ccc12
% of hAChE activity treated with oxime (100 µM) (hAChE): 6%
IC50 (hAChE): 3.21 µM
% of hBChE activity treated with oxime (100 µM) (hBChE): 43%
Selectivity index hBChE/hAChE (hBChE): 24.2
IC50 (hBChE): 77.7 µM

C[n+]1ccc2c(C=NO)cccc2c1.[I-]
% of hAChE activity treated with oxime (100 µM) (hAChE): 20%
% of hBChE activity treated with oxime (100 µM) (hBChE): 49%
Selectivity index hBChE/hAChE (hBChE): 4

ON=Cc1cccc2c[n+](CCCCCCC[n+]3ccc4c(C=NO)cccc4c3)ccc12
% of hAChE activity treated with oxime (100 µM) (hAChE): 5%
IC50 (hAChE): 0.38 µM
% of hBChE activity treated with oxime (100 µM) (hBChE): 17%
Selectivity index hBChE/hAChE (hBChE): 10.4
IC50 (hBChE): 3.94 µM

NC(=O)c1cc[n+](CCCC[n+]2ccc3c(C=NO)cccc3c2)cc1.[Br-].[Br-]
Sarin-hBChE % reactivation ± SD ([1]; oxime 10 µM): 4.2 ± 0.5%
Sarin-hBChE % reactivation ± SD ([1]; oxime 100 µM): 5.9 ± 0.3%
% of hAChE activity treated with oxime (100 µM) (hAChE): 37%
VX-hBChE % reactivation ± SD ([3]; oxime 10 µM): 0%
VX-hBChE % reactivation ± SD ([3]; oxime 100 µM): 6.3 ± 0.6%
Paraoxon-hBChE % reactivation ± SD ([4]; oxime 10 µM): 0%
Paraoxon-hBChE % reactivation ± SD ([4]; oxime 100 µM): 1.1 ± 0.2%
% of hBChE activity treated with oxime (100 µM) (hBChE): 92%
Selectivity index hBChE/hAChE (hBChE): 48.4

NC(=O)c1cc[n+](CCCC[n+]2ccc3c(C=NO)cccc3c2)cc1
IC50 (hAChE): 55.7 µM
IC50 (hBChE): 2700 µM

ON=Cc1cccc2c[n+](CCCCCCCC[n+]3ccc4c(C=NO)cccc4c3)ccc12
% of hAChE activity treated with oxime (100 µM) (hAChE): 9%
IC50 (hAChE): 2.42 µM
% of hBChE activity treated with oxime (100 µM) (hBChE): 9%
Selectivity index hBChE/hAChE (hBChE): 1.5
IC50 (hBChE): 3.52 µM

ON=Cc1cccc2c[n+](CCC[n+]3ccc4c(C=NO)cccc4c3)ccc12
Sarin-hBChE % reactivation ± SD ([1]; oxime 10 µM): 14.7 ± 0.4%
Sarin-hBChE % reactivation ± SD ([1]; oxime 100 µM): 52.6 ± 1.3%
% of hAChE activity treated with oxime (100 µM) (hAChE): 34%
IC50 (hAChE): 32.9 µM
VX-hBChE % reactivation ± SD ([3]; oxime 10 µM): 14.3 ± 0.4%
VX-hBChE % reactivation ± SD ([3]; oxime 100 µM): 45.2 ± 0.5%
Kd [5, 7]: 5.3 µM
kr ([5]; reactivity constant): 1.29 min⁻¹
kr2 [5, 8]: 4075 M⁻¹ s⁻¹
Paraoxon-hBChE % reactivation ± SD ([4]; oxime 10 µM): 2.0 ± 0.5%
Paraoxon-hBChE % reactivation ± SD ([4]; oxime 100 µM): 10.6 ± 0.5%
% of hBChE activity treated with oxime (100 µM) (hBChE): 67%
Selectivity index hBChE/hAChE (hBChE): 8.6
IC50 (hBChE): 284 µM
Kd [6, 7]: 17.4 µM
kr ([6]; reactivity constant): 0.47 min⁻¹
kr2 [6, 8]: 452 M⁻¹ s⁻¹

ON=Cc1cccc2c[n+](CCCCCCCCCCCC[n+]3ccc4c(C=NO)cccc4c3)ccc12
% of hAChE activity treated with oxime (100 µM) (hAChE): 0%
IC50 (hAChE): 0.061 µM
% of hBChE activity treated with oxime (100 µM) (hBChE): 6%
Selectivity index hBChE/hAChE (hBChE): 19.3
IC50 (hBChE): 1.18 µM

ON=Cc1cccc2c[n+](CCCCCC[n+]3ccc4c(C=NO)cccc4c3)ccc12
% of hAChE activity treated with oxime (100 µM) (hAChE): 5%
IC50 (hAChE): 0.56 µM
% of hBChE activity treated with oxime (100 µM) (hBChE): 31%
Selectivity index hBChE/hAChE (hBChE): 56.1
IC50 (hBChE): 31.4 µM

NC(=O)c1cc[n+](CCC[n+]2ccc3c(C=NO)cccc3c2)cc1
IC50 (hAChE): 116 µM
IC50 (hBChE): 2470 µM
